This note sets out measurements from patent EP4831180A1, “NOVEL KINASE INHIBITOR” (dated 2026).

By UniProt entry, the sequences of proteins in these tests, tags left out. Residues count along the entry.
UniProt Q9UM73, 19-1620 L1196M/G1202R limits assumed: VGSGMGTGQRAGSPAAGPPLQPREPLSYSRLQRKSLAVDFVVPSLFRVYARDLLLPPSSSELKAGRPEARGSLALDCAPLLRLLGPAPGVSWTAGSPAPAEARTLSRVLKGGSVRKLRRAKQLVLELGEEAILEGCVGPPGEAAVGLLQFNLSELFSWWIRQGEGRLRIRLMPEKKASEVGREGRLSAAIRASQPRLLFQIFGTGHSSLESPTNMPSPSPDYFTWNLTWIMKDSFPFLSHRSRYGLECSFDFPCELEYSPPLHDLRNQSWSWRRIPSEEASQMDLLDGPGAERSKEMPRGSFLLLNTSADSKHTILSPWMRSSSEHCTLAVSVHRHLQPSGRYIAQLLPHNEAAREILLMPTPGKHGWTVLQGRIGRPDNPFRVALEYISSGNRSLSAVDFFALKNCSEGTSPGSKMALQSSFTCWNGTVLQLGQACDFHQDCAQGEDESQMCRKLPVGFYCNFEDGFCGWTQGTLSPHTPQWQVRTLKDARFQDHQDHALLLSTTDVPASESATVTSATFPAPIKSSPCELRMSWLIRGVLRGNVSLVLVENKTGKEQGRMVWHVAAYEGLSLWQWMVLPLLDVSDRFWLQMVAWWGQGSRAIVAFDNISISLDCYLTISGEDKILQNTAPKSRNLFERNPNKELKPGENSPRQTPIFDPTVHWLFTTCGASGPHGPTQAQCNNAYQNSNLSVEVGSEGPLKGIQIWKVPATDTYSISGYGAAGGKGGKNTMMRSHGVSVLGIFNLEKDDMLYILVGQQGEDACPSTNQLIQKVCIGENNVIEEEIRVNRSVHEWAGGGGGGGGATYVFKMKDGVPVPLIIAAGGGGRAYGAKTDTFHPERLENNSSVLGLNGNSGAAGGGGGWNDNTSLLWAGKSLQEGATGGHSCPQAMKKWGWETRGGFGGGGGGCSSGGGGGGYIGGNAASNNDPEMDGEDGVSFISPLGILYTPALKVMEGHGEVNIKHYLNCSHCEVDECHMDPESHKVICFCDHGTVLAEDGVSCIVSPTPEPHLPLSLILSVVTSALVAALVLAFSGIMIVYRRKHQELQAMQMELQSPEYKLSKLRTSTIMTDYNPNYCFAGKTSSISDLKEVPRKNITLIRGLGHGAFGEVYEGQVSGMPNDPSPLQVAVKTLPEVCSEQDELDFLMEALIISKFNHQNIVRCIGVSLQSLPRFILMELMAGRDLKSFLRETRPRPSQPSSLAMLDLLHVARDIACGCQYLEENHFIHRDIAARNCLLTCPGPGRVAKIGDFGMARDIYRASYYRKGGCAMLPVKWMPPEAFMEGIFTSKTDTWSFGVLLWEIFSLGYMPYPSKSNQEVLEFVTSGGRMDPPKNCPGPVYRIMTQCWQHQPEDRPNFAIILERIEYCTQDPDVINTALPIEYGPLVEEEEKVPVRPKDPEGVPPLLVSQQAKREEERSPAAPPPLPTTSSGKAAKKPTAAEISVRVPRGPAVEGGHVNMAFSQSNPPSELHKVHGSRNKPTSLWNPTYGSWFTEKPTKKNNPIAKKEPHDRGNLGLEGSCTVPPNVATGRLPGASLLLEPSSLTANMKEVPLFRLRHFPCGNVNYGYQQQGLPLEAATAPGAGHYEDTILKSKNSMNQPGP

The assay has as its target His-ALK^G1202R/L1196M (Homo sapiens, UniProt Q9UM73, G1202R/L1196M). Nature of the assay: ALK G1202R/L1196M compound mutant kinase inhibitory activity assay (HTRF). Conditions: read-out: ALK^G1202R/L1196M Enzyme, IC50, ATP 4 µM, enzyme 0.5 nM, 1 hour at 23 °C. On the technique in general: Time-resolved FRET reads energy transfer from a long-lived donor to a nearby acceptor.
Turning to `CCn1nc(C#CC(C)(C)NS(=O)(=O)C(C)C)c2c1-c1cnc(N)c(c1)O[C@H](C)c1cc(F)ccc1-c1nn(C)cc1C2`, the IC50 was below 5 nM.
With `CCn1nc(C#CC2(O)CNC2)c2c1-c1cnc(N)c(c1)O[C@H](C)c1cc(F)ccc1-c1nn(C)nc1C2`, the IC50 is below 5 nM.
Take `C#Cc1nn(CC)c2c1Cc1scnc1-c1ccc(F)cc1[C@@H](C)Oc1cc-2cnc1N`: the IC50 was below 5 nM.
As for `CCn1nc(C#CC2CCCCO2)c2c1-c1cnc(N)c(c1)O[C@H](C)c1cc(F)ccc1-c1nn(C)cc1C2` (stereo partly shown), the IC50 was below 5 nM.
For the molecule `CCn1nc(C#CC2(O)CNC2)c2c1-c1cnc(N)c(c1)O[C@H](C)c1cc(F)ccc1-c1nn(C)cc1C2`, the IC50 is below 5 nM.
Take `CCn1nc(C#Cc2ccncc2)c2c1-c1cnc(N)c(c1)O[C@H](C)c1cc(F)ccc1-c1nn(C)cc1C2`: the IC50 is below 5 nM.
In the case of `C=Cc1c2c(nn1C)-c1ccc(F)cc1[C@@H](C)Oc1cc(cnc1N)-c1c(cnn1CC)C2`, the IC50 was below 5 nM.
As to `C#Cc1c2c(nn1C)-c1ccc(F)cc1[C@@H](C)Oc1cc(cnc1N)-c1c(cnn1CC)C2`, the IC50 is below 5 nM.
As to `CCn1nc(N=S(C)(C)=O)c2c1-c1cnc(N)c(c1)O[C@H](C)c1cc(F)ccc1-c1nn(C(F)F)cc1C2`, the IC50 was below 5 nM.
Consider `CCn1nc(C#Cc2cc[nH]c(=O)c2)c2c1-c1cnc(N)c(c1)O[C@H](C)c1cc(F)ccc1-c1nn(C)cc1C2`, for which the IC50 is below 5 nM.
Take `CCn1nc(C#Cc2cnc(N)s2)c2c1-c1cnc(N)c(c1)O[C@H](C)c1cc(F)ccc1-c1nn(C)cc1C2`: the IC50 was below 5 nM.
For `CCn1nc(C#Cc2cnn(CC(F)(F)F)c2)c2c1-c1cnc(N)c(c1)O[C@H](C)c1cc(F)ccc1-c1nn(C)cc1C2`, the IC50 is below 5 nM.
`CCn1nc(C#Cc2cn(CC(C)(C)O)cn2)c2c1-c1cnc(N)c(c1)O[C@H](C)c1cc(F)ccc1-c1nn(C)cc1C2`: the IC50 is below 5 nM.
To `CCn1nc(C=C2CNC2)c2c1-c1cnc(N)c(c1)O[C@H](C)c1cc(F)ccc1-c1nn(C)nc1C2` belongs below 5 nM.
Turning to `CCn1nc(C#Cc2ccc(F)cn2)c2c1-c1cnc(N)c(c1)O[C@H](C)c1cc(F)ccc1-c1nn(C)cc1C2`, the IC50 was below 5 nM.
In the case of `C#Cc1nn(CC)c2c1Cc1nn(C)nc1-c1ccc(F)cc1[C@@H](C)Oc1cc-2cnc1N`, the IC50 is below 5 nM.
Regarding `C=C(F)c1nn(CC)c2c1Cc1nn(C)nc1-c1ccc(F)cc1[C@@H](C)Oc1cc-2cnc1N`, the IC50 is below 5 nM.
With `CCn1nc(C#Cc2ccncc2)c2c1-c1cnc(N)c(c1)O[C@H](C)c1cc(F)ccc1-c1nn(C)nc1C2` the figure was below 5 nM.
Consider `CCn1nc(C#CC2CCNCC2)c2c1-c1cnc(N)c(c1)O[C@H](C)c1cc(F)ccc1-c1nn(C)cc1C2`, for which the IC50 is below 5 nM.
Take `C#Cc1nn(CC)c2c1Cc1cn(C(F)F)nc1-c1ccc(F)cc1[C@@H](C)Oc1cc-2cnc1N`: the IC50 is below 5 nM.
Turning to `CCn1nc(C#Cc2ccc(C#N)nc2)c2c1-c1cnc(N)c(c1)O[C@H](C)c1cc(F)ccc1-c1nn(C)cc1C2`, the IC50 is below 5 nM.
With `CCn1nc(C#CC2CCCCN2C)c2c1-c1cnc(N)c(c1)O[C@H](C)c1cc(F)ccc1-c1nn(C)cc1C2` (stereo partly shown) the figure was below 5 nM.
On to `CCn1nc(C#CC(C)(C)NC(C)=O)c2c1-c1cnc(N)c(c1)O[C@H](C)c1cc(F)ccc1-c1nn(C)cc1C2`, for which the IC50 was below 5 nM.
For the molecule `CCn1nc(C#CCCCN)c2c1-c1cnc(N)c(c1)O[C@H](C)c1cc(F)ccc1-c1nn(C)cc1C2`, the IC50 was below 5 nM.
`CCn1nc(C#CC2CCCCC2)c2c1-c1cnc(N)c(c1)O[C@H](C)c1cc(F)ccc1-c1nn(C)cc1C2`: the IC50 is below 5 nM.
Regarding `CCn1nc(C#Cc2cccnc2)c2c1-c1cnc(N)c(c1)O[C@H](C)c1cc(F)ccc1-c1nn(C)nc1C2`, the IC50 was below 5 nM.
On to `CCn1nc(C#Cc2cccc(C(C)(C)O)n2)c2c1-c1cnc(N)c(c1)O[C@H](C)c1cc(F)ccc1-c1nn(C)cc1C2`, for which the IC50 is below 5 nM.
With `CCn1nc(C#CC2CC2)c2c1-c1cnc(N)c(c1)O[C@H](C)c1cc(F)ccc1-c1nn(C)cc1C2`, the IC50 is below 5 nM.
For `CCn1nc(/C=C/c2cccnc2)c2c1-c1cnc(N)c(c1)O[C@H](C)c1cc(F)ccc1-c1nn(C)nc1C2`, the IC50 was below 5 nM.
`CCn1nc(/C=C/C2CC2)c2c1-c1cnc(N)c(c1)O[C@H](C)c1cc(F)ccc1-c1nn(C)cc1C2`: the IC50 was below 5 nM.
With `CCn1nc(C#Cc2ccc(F)cc2)c2c1-c1cnc(N)c(c1)O[C@H](C)c1cc(F)ccc1-c1nn(C)cc1C2` the figure was below 5 nM; with `CCn1nc(C=C(C)C)c2c1-c1cnc(N)c(c1)O[C@H](C)c1cc(F)ccc1-c1nn(C)cc1C2`, below 5 nM; with `CCn1nc(C#Cc2cnc3[nH]ncc3c2)c2c1-c1cnc(N)c(c1)O[C@H](C)c1cc(F)ccc1-c1nn(C)cc1C2`, below 5 nM.
Take `C#Cc1nn(CC)c2c1Cc1nc(C)sc1-c1ccc(F)cc1[C@@H](C)Oc1cc-2cnc1N`: the IC50 is below 5 nM.
Consider `CCn1nc(Cl)c2c1-c1cnc(N)c(c1)N1CCCC1c1cc(F)ccc1-c1nn(C)cc1C2` (stereo not shown), for which the IC50 was below 5 nM.
For the molecule `CCn1nc(C#Cc2ccn3nccc3c2)c2c1-c1cnc(N)c(c1)O[C@H](C)c1cc(F)ccc1-c1nn(C)cc1C2`, the IC50 is below 5 nM.
With `CCn1nc(C#Cc2c[nH]cn2)c2c1-c1cnc(N)c(c1)O[C@H](C)c1cc(F)ccc1-c1nn(C)cc1C2`, the IC50 is below 5 nM.
As to `CCn1nc(C#CC2CNC2)c2c1-c1cnc(N)c(c1)O[C@H](C)c1cc(F)ccc1-c1nn(C)nc1C2`, the IC50 is below 5 nM.
As for `CCn1nc(C#Cc2cn(C)cn2)c2c1-c1cnc(N)c(c1)O[C@H](C)c1cc(F)ccc1-c1sc(C)nc1C2`, the IC50 was below 5 nM.
As to `C#Cc1nn(CC)c2c1Cc1ccc(OC)nc1-c1ccc(F)cc1[C@@H](C)Oc1cc-2cnc1N`, the IC50 was below 5 nM.
Regarding `CCn1nc(C#Cc2cnn(C3CC3)c2)c2c1-c1cnc(N)c(c1)O[C@H](C)c1cc(F)ccc1-c1nn(C)cc1C2`, the IC50 was below 5 nM.
Regarding `CCn1ncc2c1-c1cnc(N)c(c1)O[C@H](C(F)(F)F)c1cc(F)ccc1-c1nn(C)nc1C2`, the IC50 was below 5 nM.
In the case of `CCn1nc(C#Cc2cn(C3CC3)cn2)c2c1-c1cnc(N)c(c1)O[C@H](C)c1cc(F)ccc1-c1nn(C)cc1C2`, the IC50 is below 5 nM.
In the case of `CCn1nc(C#Cc2ccc(N)nn2)c2c1-c1cnc(N)c(c1)O[C@H](C)c1cc(F)ccc1-c1nn(C)cc1C2`, the IC50 was below 5 nM.
As for `CCn1nc(C#CC2(C#N)CCOCC2)c2c1-c1cnc(N)c(c1)O[C@H](C)c1cc(F)ccc1-c1nn(C)cc1C2`, the IC50 was below 5 nM.
Turning to `CCn1nc(C#Cc2cncc(C#N)c2)c2c1-c1cnc(N)c(c1)O[C@H](C)c1cc(F)ccc1-c1nn(C)cc1C2`, the IC50 was below 5 nM.
On to `CCn1nc(C#CC(C)(C)NS(=O)(=O)C2CC2)c2c1-c1cnc(N)c(c1)O[C@H](C)c1cc(F)ccc1-c1nn(C)cc1C2`, for which the IC50 was below 5 nM.
With `C#CCC1Oc2cc(cnc2N)-c2c(cnn2CC)Cc2nn(C)nc2-c2ccc(F)cc21` (stereo not shown), the IC50 is below 5 nM.
`CCn1nc(C#CC(C)(C)NC(=O)NC)c2c1-c1cnc(N)c(c1)O[C@H](C)c1cc(F)ccc1-c1nn(C)cc1C2`: the IC50 was below 5 nM.
`CCn1nc(C#Cc2cn(CCOC)cn2)c2c1-c1cnc(N)c(c1)O[C@H](C)c1cc(F)ccc1-c1nn(C)cc1C2`: the IC50 was below 5 nM.
Consider `C#Cc1nn(CC)c2c1Cc1nsnc1-c1ccc(F)cc1[C@@H](C)Oc1cc-2cnc1N`, for which the IC50 is below 5 nM.
With `CCn1nc(C#Cc2ccc(C(F)(F)F)cc2)c2c1-c1cnc(N)c(c1)O[C@H](C)c1cc(F)ccc1-c1nn(C)cc1C2`, the IC50 is below 5 nM.
On to `CCn1nc(C#Cc2nnc(C)s2)c2c1-c1cnc(N)c(c1)O[C@H](C)c1cc(F)ccc1-c1nn(C)cc1C2`, for which the IC50 is below 5 nM.
`CCn1nc(/C=C/COC2COC2)c2c1-c1cnc(N)c(c1)O[C@H](C)c1cc(F)ccc1-c1nn(C)cc1C2`: the IC50 was below 5 nM.
As for `CCn1nc(C#CC2COC2)c2c1-c1cnc(N)c(c1)O[C@H](C)c1cc(F)ccc1-c1nn(C)nc1C2`, the IC50 is below 5 nM.
In the case of `CCn1nc(/C=C/COC)c2c1-c1cnc(N)c(c1)O[C@H](C)c1cc(F)ccc1-c1nn(C(F)F)cc1C2`, the IC50 was below 5 nM.
Regarding `CCn1nc(C#Cc2ccc(C(C)(C)O)cn2)c2c1-c1cnc(N)c(c1)O[C@H](C)c1cc(F)ccc1-c1nn(C)cc1C2`, the IC50 is below 5 nM.
Take `CCn1nc(C#Cc2ccc3nccn3c2)c2c1-c1cnc(N)c(c1)O[C@H](C)c1cc(F)ccc1-c1nn(C)cc1C2`: the IC50 is below 5 nM.
For `CCn1nc(C#Cc2ccn(C)c2)c2c1-c1cnc(N)c(c1)O[C@H](C)c1cc(F)ccc1-c1nn(C)cc1C2`, the IC50 is below 5 nM.
With `C#Cc1nn(CC)c2c1Cc1cncnc1-c1ccc(F)cc1[C@@H](C)Oc1cc-2cnc1N` the figure was below 5 nM; with `CCn1nc(/C=C/c2ccncc2)c2c1-c1cnc(N)c(c1)O[C@H](C)c1cc(F)ccc1-c1nn(C)nc1C2`, below 5 nM.
For the molecule `CCn1nc(C#CC2(O)COC2)c2c1-c1cnc(N)c(c1)O[C@H](C)c1cc(F)ccc1-c1nn(C)cc1C2`, the IC50 is below 5 nM.
On to `CCn1nc(C#Cc2cn(CC(F)(F)F)cn2)c2c1-c1cnc(N)c(c1)O[C@H](C)c1cc(F)ccc1-c1nn(C)cc1C2`, for which the IC50 is below 5 nM.
In the case of `CCn1ncc2c1-c1cnc(N)c(c1)O[C@H](C)c1cc(F)ccc1-c1nn(C)c(N=S(C)(C)=O)c1C2`, the IC50 was below 5 nM.
As to `CCn1nc(C#CC(C)(C)NS(=O)(=O)C(F)(F)F)c2c1-c1cnc(N)c(c1)O[C@H](C)c1cc(F)ccc1-c1nn(C)cc1C2`, the IC50 was below 5 nM.
With `CCn1nc(C#Cc2ccc[nH]c2=O)c2c1-c1cnc(N)c(c1)O[C@H](C)c1cc(F)ccc1-c1nn(C)cc1C2` the figure was below 5 nM; with `CCn1nc(C#CC(C)(C)C)c2c1-c1cnc(N)c(c1)O[C@H](C)c1cc(F)ccc1-c1nn(C)cc1C2`, below 5 nM.
To `CCn1nc(C#Cc2cnn(CC(C)(C)O)c2)c2c1-c1cnc(N)c(c1)O[C@H](C)c1cc(F)ccc1-c1nn(C)cc1C2` belongs below 5 nM; to `C#Cc1nn(CC)c2c1Cc1nc(C)oc1-c1ccc(F)cc1[C@@H](C)Oc1cc-2cnc1N`, below 5 nM.
With `CCn1nc(C#Cc2cc(OC)cc(OC)c2)c2c1-c1cnc(N)c(c1)O[C@H](C)c1cc(F)ccc1-c1nn(C)cc1C2` the figure was below 5 nM.
